SMILES strings stand for the structures. The entries are a selection whose mix differs from that of the whole data set. Activity calls are given as the source filed them.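 Rule for the calls: active = inhibition above the mean of all tested compounds plus 3 SD, set per campaign (cut at about 25% in these data); inactive = the rest.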

Protein sequences, listed by entry. Tags and fused reporters are not part of them.
UniProt O95551, whole entry: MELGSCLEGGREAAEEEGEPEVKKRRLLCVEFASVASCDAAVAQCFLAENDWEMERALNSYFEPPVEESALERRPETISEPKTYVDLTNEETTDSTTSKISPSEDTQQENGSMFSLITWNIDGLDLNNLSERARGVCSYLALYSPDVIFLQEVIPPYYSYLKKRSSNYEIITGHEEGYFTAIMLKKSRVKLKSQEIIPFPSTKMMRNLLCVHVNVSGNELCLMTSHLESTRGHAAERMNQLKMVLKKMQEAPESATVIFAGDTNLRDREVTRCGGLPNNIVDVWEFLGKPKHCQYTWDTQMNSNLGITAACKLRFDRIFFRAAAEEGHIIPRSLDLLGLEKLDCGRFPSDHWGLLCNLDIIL

A word on the inhibition: it is the drop in the measured response relative to a control, in per cent.

The assay deals with Tyrosyl-DNA phosphodiesterase 2 (Homo sapiens) (UniProt O95551). The experiment in a line: human TDP2 enzyme inhibitors, primary screen, biochemical, epi absorbance, recombinant enzyme (AID 720702).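 Note: 0% = DMSO with enzyme and 100% = buffer with substrate but no TDP2.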 The note with it: recombinant TDP2, T5PNP hydrolysis, p-nitrophenol absorbance 415 nm; at 12.8 µM; stronger effect = higher value. In short, it runs like this: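 Incubation: 2 h at 37 °C; Test system: recombinant human TDP2; Quantity: enzyme 120 nM; Read-out basis: percent inhibition; Medium: 50 mM Tris-HCl pH 7.5 with Mg2+, KCl, DTT, BSA; Repeats: single replicate; Compound: 12.8 µM single point, 1% DMSO; Signal: epi absorbance; Reagent: 5 mM T5PNP chromogenic substrate; Benchmarks: no-enzyme high, DMSO-plus-enzyme low.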
As to `CCC(=O)N(c1ccccc1)C1(COC)CCN(CCn2nnn(CC)c2=O)CC1`, the inhibition is inactive: 3.18%.
In the case of `CCC(=O)N(c1ccccc1)C1(COC)CCN(CCc2cccs2)CC1` it was inactive: -5.16%.
